Experimental data reported in patent US9556471B2, “Enzyme containing liquid and delivery system for detection of analytes on surfaces” (dated 2017).

By UniProt entry, the sequences of proteins in these tests, tags left out. Residues count along the entry.
UniProt P22303, 32-614 limits assumed: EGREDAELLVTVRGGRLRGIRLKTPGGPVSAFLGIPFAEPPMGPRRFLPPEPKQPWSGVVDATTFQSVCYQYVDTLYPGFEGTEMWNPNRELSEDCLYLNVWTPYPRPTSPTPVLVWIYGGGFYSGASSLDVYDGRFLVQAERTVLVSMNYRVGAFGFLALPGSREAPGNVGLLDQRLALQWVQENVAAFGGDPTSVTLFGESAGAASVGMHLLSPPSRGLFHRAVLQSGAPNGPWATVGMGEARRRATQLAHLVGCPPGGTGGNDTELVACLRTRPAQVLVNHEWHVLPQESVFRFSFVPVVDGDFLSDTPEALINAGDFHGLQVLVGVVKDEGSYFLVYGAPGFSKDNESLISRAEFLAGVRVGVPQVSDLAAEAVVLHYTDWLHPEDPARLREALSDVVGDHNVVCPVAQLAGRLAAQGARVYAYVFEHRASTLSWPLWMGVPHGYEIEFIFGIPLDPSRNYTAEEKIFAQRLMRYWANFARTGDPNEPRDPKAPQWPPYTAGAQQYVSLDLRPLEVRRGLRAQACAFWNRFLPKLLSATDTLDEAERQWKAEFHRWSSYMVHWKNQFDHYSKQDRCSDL

Tests used:
[1] = biological target: AChE (Homo sapiens, UniProt P22303); test: AChE/urease liquid with carboxy-SNARF, organophosphate detection via fluorescence measurement; conditions: 2 mg dichlorvos in 10 mL sensor (0.2 mg/mL), 25 degrees C.
[2] = biological target: urease (Canavalia ensiformis, UniProt P07374); test: Sprayed urease enzyme containing liquid, urea detection via visible color change; conditions: surface with 1 mL of 100 mM urea per tile; cresol red indicator

Row | Molecule | emission wavelength of the fluorescent indicator ([1]; time 0 minutes) [nm] | emission wavelength of the fluorescent indicator ([1]; time 8 minutes, shift due to inhibition of AChE) [nm] | time for sprayed sensor to turn from yellow to red (catalytic hydrolysis of urea) [2] [min]
1 | COP(=O)(OC)OC=C(Cl)Cl | 600 | 650 | 
2 | urea |  |  | ≤ 5
